The chains behind the UniProt entries cited, without tags or fusion partners. Where a name states a change or a piece, a line headed by the entry shows the natural chain unless it says otherwise.
UniProt P43116: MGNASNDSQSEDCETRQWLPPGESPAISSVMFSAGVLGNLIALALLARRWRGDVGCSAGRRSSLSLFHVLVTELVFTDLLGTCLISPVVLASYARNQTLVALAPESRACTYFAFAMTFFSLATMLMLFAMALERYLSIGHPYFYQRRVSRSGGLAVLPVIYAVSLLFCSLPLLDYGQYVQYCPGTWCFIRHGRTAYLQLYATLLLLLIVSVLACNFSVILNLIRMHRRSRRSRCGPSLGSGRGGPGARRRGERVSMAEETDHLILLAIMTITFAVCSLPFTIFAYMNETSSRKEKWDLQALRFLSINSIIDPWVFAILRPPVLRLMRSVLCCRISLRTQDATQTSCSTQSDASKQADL
UniProt P43119: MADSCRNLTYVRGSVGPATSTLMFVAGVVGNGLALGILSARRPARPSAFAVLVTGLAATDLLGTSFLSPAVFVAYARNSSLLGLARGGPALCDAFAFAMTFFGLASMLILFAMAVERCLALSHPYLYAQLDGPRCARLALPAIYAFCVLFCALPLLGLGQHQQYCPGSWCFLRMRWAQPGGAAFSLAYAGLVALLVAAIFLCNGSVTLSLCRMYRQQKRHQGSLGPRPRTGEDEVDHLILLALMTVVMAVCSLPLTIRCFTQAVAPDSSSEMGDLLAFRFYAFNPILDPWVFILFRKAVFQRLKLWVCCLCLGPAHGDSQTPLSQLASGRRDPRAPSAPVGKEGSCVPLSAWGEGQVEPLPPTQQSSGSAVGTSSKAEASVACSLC

According to article PMC11602115 (Journal of Medicinal Chemistry, 2017):

Tests used:
Type in all cases: cell-based
EP2 = EP2 (Homo sapiens, UniProt P43116); assay: cAMP HTRF agonist assay, EP2
Excerpt: Table Sup2: Data with some comparator compounds in functional assays.
Compound DP1 EP1 EP2 EP3v6 EP4
EC50, µµµµM (% I.A) EC50, µµµµM (% I.A) EC50, µµµµM (% I.A) EC50, µµµµM (% I.A) EC50, µµµµM (% I.A)
n = 3 n = 2 n = 8 n = 6 n = 6
All assays were cAMP HTRF agonist assays (Gs) except for EP3v6 which was a melanophore dispersion
Additional data from the in vivo evaluation of 5c […]

human platelet = assay: Inhibition of ADP-induced human platelet aggregation; conditions: aggregation induced by 2.5 μM ADP, mean of at least two determinations
Experimental: Such aggregated and activated platelets produce vasoactive substances such as thromboxane and serotonin that may cause harmful vasoconstriction and vascular remodeling.[13] […] This secondary assay was carried out as previously described,[14] with aggregation induced by 2.5 μM ADP in the presence or absence of IP receptor agonists.

IP = IP (Homo sapiens, UniProt P43119); assay: HTRF cAMP assay, recombinant human IP receptor stably expressed in CHO-K1 cells; set-up: expressed in transfected cells; conditions: mean of at least three determinations
Experimental: The new compounds were tested for functional agonist activity in a standard (Cisbio) cAMP assay using recombinant IP or DP1 receptors stably expressed in CHO-K1 cells. Clonal cell lines were derived following standard protocols, but receptor expression levels were kept to a minimum to preclude receptor reserve effects.
For development of cAMP accumulation assays, recombinant IP or DP1 receptors were stably expressed in CHO-K1 cells and clonal cell lines derived following standard protocols. Receptor expression levels were minimized to preclude receptor reserve effects. HTRF cAMP assays were performed according to the manufacturer’s instructions (Cisbio, cAMP Dynamic 2 assay kit; no. 62AM4PEJ). IP receptor-expressing cells were harvested, resuspended in assay buffer (PBS containing 1 mM IBMX and 0.2% BSA) at a density of 200 000 cells per mL, and dispensed into 384-well assay plates (PerkinElmer Proxiplate no. 6008280) at 5 μL per well. Test compounds were solubilized and serially diluted in DMSO using 5-fold dilutions to generate a 10-point dose–response curve with a top concentration of 10 μM. The samples were then further diluted in PBS to achieve a 2× stock. […] Plates were then incubated at room temperature for 1 h prior to reading. Time-resolved fluorescence measurements were collected on PerkinElmer Envision or BMG Pherastar microplate readers.

[1] = test system: primary human pulmonary arterial smooth muscle cells; assay: HTRF cAMP assay in primary human pulmonary arterial smooth muscle cells; conditions: PASMC, n = 8, read-out: EC50 [95% CI], primary human PASMC cAMP
Experimental: Additional In Vitro Assays […]
Compounds were also evaluated in HTRF cAMP assays using primary human pulmonary arterial smooth muscle cells (Cell Applications, Inc., #352Kq05a, or ThermoFisher/Gibco, #C0095C) using the same basic assay protocol outlined in the Experimental section. Cells were cultured as recommended by the suppliers, used at low passage and seeded into 384qwell assay plates at a density of 700q900 cell per well

EC50 (EP2): 5.5 nM
Compound: CCCCC[C@H](O)/C=C/[C@H]1[C@H](O)CC(=O)[C@@H]1C/C=C\CCCC(=O)O [PGE2]

IC50 (human platelet): 54 nM
EC50 (IP): 19 nM
Compound: O=C(O)COC[C@H]1CC[C@H](COC(=O)N(c2ccccc2)c2cccc(Cl)c2)CC1 [5i, 2-(((1r,4r)-4-(((3-Chlorophenyl)(phenyl)carbamoyloxy)methyl)cyclohexyl)methoxy)acetic Acid]

Compound: O=C(O)COC[C@H]1CC[C@H](COC(=O)N(c2ccccc2)c2ccc(Cl)cc2)CC1 [5c, Sodium 2-(((1r,4r)-4-(((4-Chlorophenyl)(phenyl)carbamoyloxy)methyl)cyclohexyl)methoxy)acetate]
EC50 [1]: 24 nM

One block for each compound: values may come before it.
